The list shows a part of the results, in another mix than the full data. Activity calls are given as the source filed them. Cut-off read from the data, not from the text of the source: active = inhibition above about 4.5%; inactive = the rest.
Tested on: Methionine sulfoxide reductase A (Bos taurus)
Assay: bovine MsrA enzyme inhibitors, primary screen, biochemical, absorbance, HTS (AID 651718);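 note: 0% = vehicle wells with enzyme and 100% = reference inhibitor wells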
Conditions: purified bovine MsrA, absorbance read-out; at 15.5 µM; active compounds read high

SMILES	inhibition
CCC(=O)N(c1ccccc1)C1(COC)CCN(CCc2cccs2)CC1	inactive: -1.18%
CCC(=O)N(c1ccccc1)C1(COC)CCN(CCn2nnn(CC)c2=O)CC1	inactive: 1%
